# From PubChem BioAssay AID588342 (National Center for Advancing Translational Sciences (NCATS), 2011)
# Sequences of proteins named here, by UniProt entry; tags and fusion partners are left off.
# UniProt P08659, whole entry, looked up: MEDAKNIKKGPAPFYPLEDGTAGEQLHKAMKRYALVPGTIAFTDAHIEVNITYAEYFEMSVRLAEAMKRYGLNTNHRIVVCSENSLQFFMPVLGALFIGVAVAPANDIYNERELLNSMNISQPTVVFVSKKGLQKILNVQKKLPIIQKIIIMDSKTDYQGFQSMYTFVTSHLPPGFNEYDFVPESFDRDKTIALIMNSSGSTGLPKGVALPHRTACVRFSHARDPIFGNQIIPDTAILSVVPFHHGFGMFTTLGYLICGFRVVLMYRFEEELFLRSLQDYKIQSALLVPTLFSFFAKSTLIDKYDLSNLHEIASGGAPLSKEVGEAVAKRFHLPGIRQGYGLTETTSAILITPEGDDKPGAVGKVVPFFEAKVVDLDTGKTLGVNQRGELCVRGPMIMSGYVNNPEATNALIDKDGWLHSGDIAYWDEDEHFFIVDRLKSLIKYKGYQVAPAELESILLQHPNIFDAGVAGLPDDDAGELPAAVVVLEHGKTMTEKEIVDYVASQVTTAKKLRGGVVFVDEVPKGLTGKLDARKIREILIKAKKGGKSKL
# Where “and” joins values, the source holds several entries; their conditions need not be identical. Equal values may be shown once. This is a selection; strong and weak results do not stand in their true shares. Results filed as inconclusive are left out. Calls of active or inactive are those of the source. Calls come from the whole dose curve; as a rule, active = well fitted inhibition curve with a large enough effect; inconclusive = small, poorly fitted or top-dose-only effect; inactive = flat fitted curve, though single readings scatter.
# Molecular target: Luciferin 4-monooxygenase (Photinus pyralis) (UniProt P08659)
# Assay: qHTS profiling assay for firefly luciferase inhibitor/activator using purifed enzyme and Km concentrations of substrates (counterscreen for miR-21 project);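 note: plate controls were vehicle for no effect and reference inhibitor for full effect; nearly all actives have a fitted effect of over 55% in size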
# Settings: purified FLuc, luminescence inhibition; at 57.5 µM (top of the series)
row,Structure (SMILES),"activity change, negative = inhibition"
1,CC1CCC(C(C)C)C(OP(=O)(Nc2ccccn2)c2ccccc2)C1 (stereo unspecified),inactive: -4.74%
2,Cc1ccc(C(=O)OC2CN3CCC2CC3)cc1 (stereo unspecified),inactive: 1.92%
3,CN(C)C1(CNC(=O)c2ccc(S(C)(=O)=O)cc2)CCCCC1,inactive: 1.1%
4,O=C(/C=C/c1ccccc1)OC1CN2CCC1CC2 (stereo unspecified),inactive: -3.32%
5,O=P1(Nc2ncccn2)COc2ccccc2OC1,inactive: -0.309%
6,Nc1cccc([As](=O)(O)c2ccccc2)c1,inactive: -0.424%
7,O=P1(Nc2ccc(Br)cn2)COc2ccccc2OC1,inactive: 3.51%
8,NS(=O)(=O)c1cccc(NC(=O)COC(=O)C(O)(c2ccccc2)c2ccccc2)c1,inactive: 1.77%
9,O=[As](O)(c1cccs1)c1cccs1,inactive: 0.937%
10,Cc1ccc(OCC(=O)OC2CN3CCC2CC3)cc1 (stereo unspecified),inactive: -5.26%
11,O=P1(Nc2ccccn2)COc2ccccc2OC1,inactive: -1.03%
12,CCC1=CC2Cc3nc4ccc(Cl)cc4c(N)c3C(C1)C2 (stereo unspecified),inactive: 1.49%
13,CCOP(=O)(NC(=NC(C)c1ccccc1)NC(C)c1ccccc1)OCC (stereo unspecified),inactive: 2%
14,CCOP(=O)(Nc1ccc(C)cn1)OCC,inactive: -0.755%
15,Clc1n[nH]nc1-c1nn[nH][15n]1,inactive: -2.76%
16,CC(C)(C)C(=O)NC(Sc1ncccn1)C(Cl)(Cl)Cl (stereo unspecified),inactive: -1.54%
17,COc1ccccc1CNC(=O)COC(=O)C(O)(c1ccccc1)c1ccccc1,inactive: 2.92%
18,CC(C)/C=N\N=C(\N)N[N+](=O)[O-],inactive: -0.0504%
19,CN(C(=O)Cc1ccc(Cl)c(Cl)c1)[C@@H]1CCCC[C@H]1N1CCCC1,inactive: 1.77%
20,O=[As](O)(c1ccccc1Br)c1ccccc1Br,inactive: 1.58%
21,O=C(OC1CN2CCC1CC2)c1ccc(Cl)cc1 (stereo unspecified),inactive: -1.59%
22,COc1cc(C(=O)NCC2(N3CCOCC3)CCCCC2)cc(Cl)c1OC(C)C,inactive: -1.35%

row,Structure (SMILES),"activity change, negative = inhibition"
1,O=[As](O)(O)c1cccnc1,inactive: -4.57%
2,CS(=O)(=O)c1ccc(Cl)c(NC(=O)COC(=O)C(O)(c2ccccc2)c2ccccc2)c1,inactive: 2.2%
3,O=[As](O)(c1cccc(O)c1)c1cccc(O)c1,inactive: -0.0681%
4,Cc1cccc(OCC(=O)OC2CN3CCC2CC3)c1 (stereo unspecified),inactive: 0.195%
5,Nc1cccc2c([As](=O)(O)O)cccc12,inactive: -2.31%
6,Cc1ccc(NCCc2c([N+](=O)[O-])cc([N+](=O)[O-])cc2[N+](=O)[O-])cc1,inactive: -10.9%
7,CCCOP(=S)(Nc1nc(N)cc(=O)[nH]1)OCCC,inactive: -4.57%
8,COc1cc(C2NCCC3(OCCO3)C2(C)C)cc(OC)c1OC (stereo unspecified),inactive: 0.816%
9,CCOP(=O)(Nc1cccc2ccccc12)OCC,inactive: 2.27%
10,CCOP1(=S)c2c(C)nn(CCC#N)c2N=C(c2ccccc2F)N1C (stereo unspecified),inactive: -0.0537%
11,O=P(Nc1nccs1)(Oc1ccccc1)Oc1ccccc1,inactive: -15.4%
12,Nc1ccccc1[As](=O)(O)c1ccccc1,inactive: -2.15%
13,O=C(O)COc1ccc([As](=O)(O)O)cc1[N+](=O)[O-],inactive: 1.15%
14,NC(=O)Nc1ccc([As](=O)(O)O)cc1,inactive: -0.397%
15,N#CCCN(C(=O)COC(=O)C(O)(c1ccccc1)c1ccccc1)c1ccc(F)cc1,inactive: -0.615%
16,CCOP1(=S)c2c(C)nn(CCC#N)c2N=C(c2ccc(F)cc2)N1C (stereo unspecified),inactive: 1.62%
17,CN(C(=O)Cc1ccccc1)[C@@H]1CC[C@]2(CCCO2)C[C@H]1N1CCCC1,inactive: 0.442%
18,O=[N+]([O-])c1ccc2c(c1)nnn2O,inactive: 5.07%
19,c1ccc(-c2nn[nH]n2)c(-c2nn[nH]n2)c1,inactive: -8.4%
20,CCOC(=O)NC(Sc1ccccc1)C(Cl)(Cl)Cl (stereo unspecified),inactive: 2.62%
21,Cc1ccc(NP(=O)(Oc2cccc(C)c2)Oc2cccc(C)c2)nc1,inactive: 1.45%
22,CCNC(=S)/N=C(\N)N[N+](=O)[O-],inactive: 0.239%

row,Structure (SMILES),"activity change, negative = inhibition"
1,O=C(NC1CCS(=O)(=O)C1)NP(=S)(Oc1ccccc1)Oc1ccccc1 (stereo unspecified),inactive: -8.8%
2,O=C(OC1CN2CCC1CC2)c1ccccc1 (stereo unspecified),inactive: 0.669%
3,CCC(=O)N1C2C3N(C(=O)CC)C1C1N(C(=O)CC)C(C(N1C(=O)CC)N3C(=O)CC)N2C(=O)CC,inactive: 7.03%
4,COC(=O)c1cc2c(s1)N=C(c1ccccc1)N(C)P2(=O)N1CCOCC1 (stereo unspecified),inactive: 3.61%
5,Cc1ccc(OP(=O)(Nc2ccccn2)Oc2ccc(C)cc2)cc1,inactive: 4.22%
6,CC(=O)NC(SC(=S)N(CC(C)C)CC(C)C)C(Cl)(Cl)Cl (stereo unspecified),inactive: -2.36%
7,Cc1ccccc1OP(=O)(Nc1ccccn1)Oc1ccccc1C,inactive: -0.989%
8,CN(C)C(=O)Oc1noc2ccccc12,inactive: -1.65%
9,CC(C)(C)C(=O)NC(Sc1ccccc1)C(Cl)(Cl)Cl (stereo unspecified),inactive: -7.26%
10,C[C@@H]1C=CCP(=O)(Oc2ccccc2)O1 (stereo partly specified),inactive: 4.79%
11,C[C@H]1OP(=O)(Oc2ccccc2)C[C@@H]2O[C@@H]21 (stereo partly specified),inactive: 0.376%
12,CC(=O)c1ccc(N2CC2c2ccncc2)cc1 (stereo unspecified),inactive: 4.73%
13,CC(=O)Nc1ccc([As](=O)(O)O)c(O)c1,inactive: 1.67%
14,CC(C)C(=O)NC(Sc1ccccc1)C(Cl)(Cl)Cl (stereo unspecified),inactive: -0.93%
15,O=P(Nc1nccs1)(c1ccccc1)c1ccccc1,inactive: -1.52%
16,c1nnnn1CCn1cnnn1,inactive: -0.958%
17,O=P(Nc1ccccn1)(c1ccc(Br)cc1)c1ccc(Br)cc1,inactive: -1.99%
18,CN(C)C1(CNC(=O)c2ccc(Cl)c(S(N)(=O)=O)c2)CCCCC1,inactive: -1.87%
19,O=P(Nc1nc2ccccc2s1)(c1ccccc1)c1ccccc1,inactive: -16%
20,C[C@H]1OP(=O)(Oc2ccccc2)[C@H](O)[C@H](O)[C@H]1N=[N+]=[N-] (stereo partly specified),inactive: -2.38%
21,O=[As](O)(c1ccccc1)c1ccc(O)cc1,inactive: 5.75%
22,O=[N+]([O-])c1ccc(O)c(/C=N/Nc2ccc([N+](=O)[O-])cc2[N+](=O)[O-])c1,inactive: -12.6%

row,Structure (SMILES),"activity change, negative = inhibition"
1,O=[N+]([O-])c1ncn(CCn2cnc([N+](=O)[O-])n2)n1,inactive: -0.0414%
2,CC(=O)NC(SC(=S)N(C)C)C(Cl)(Cl)Cl (stereo unspecified),inactive: -15.9%
3,O=C(OC1CN2CCC1CC2)c1cccc(Cl)c1 (stereo unspecified),inactive: 1.92%
4,Nc1ccc([As](=O)(O)c2ccc([N+](=O)[O-])cc2)cc1,inactive: -0.447%
5,C(Cc1nn[nH]n1)Cc1nn[nH]n1,inactive: -1.3%
6,O=C(Nc1cc([As](=O)(O)O)ccc1O)c1ccccc1,inactive: 1.81%
7,O=[N+]([O-])c1ncn(CCn2ncnc2[N+](=O)[O-])n1,inactive: -1.32%
8,CC(C)(C)C(=O)NC(Sc1ccncn1)C(Cl)(Cl)Cl (stereo unspecified),inactive: 1.47%
9,O=C(O)CNc1ccc([As](=O)(O)O)cc1,inactive: 2.02%
10,O=[N+]([O-])c1cccc(NC2=NCC(CBr)S2)c1 (stereo unspecified),inactive: -1.41%
11,COc1ccc(C2=NCC(CBr)S2)cc1 (stereo unspecified),inactive: -3.15%
12,Cc1ccc(NP(=O)(Oc2ccccc2)Oc2ccccc2)nc1,inactive: 0.0908%
13,CCc1nc2c(n1)c1c(non1O)c1c2no[n+]1[O-],inactive: 2.04%
14,O=[N+]([O-])c1cc([N+](=O)[O-])c(CCNc2ccccc2)c([N+](=O)[O-])c1,inactive: 2.74%
15,O=[N+]([O-])c1cccc2n[nH]nc12,inactive: 3.02%
16,CC(=O)N1C2C3N(C(C)=O)C1C1N(C(C)=O)C(C(N1C(C)=O)N3C(C)=O)N2C(C)=O,inactive: -0.616%
17,CCN(/C(=N/P(=O)(N1CCOCC1)N1CCOCC1)N1CCOCC1)c1ccc(OC)cc1,inactive: -0.789%
18,Nc1ccc([As](=O)(O)c2ccc(N)cc2)cc1,inactive: -1.26%
19,CN(C)C(=O)OCCc1n(C)cc[n+]1C,inactive: 1.09%
20,CN(C(=O)Cc1ccc(Cl)c(Cl)c1)[C@H]1CCCC[C@H]1N1CCCC1,inactive: -0.149%
21,Cc1ccc(N/C(=N/P(=O)(N2CCOCC2)N2CCOCC2)N2CCOCC2)cc1,inactive: -0.233%
22,NC(=O)c1cc([N+](=O)[O-])cc([N+](=O)[O-])c1N,inactive: -2.96%

row,Structure (SMILES),"activity change, negative = inhibition"
1,Clc1ccc(Cl)c(NC2=NCC(CBr)S2)c1 (stereo unspecified),inactive: -18.2%
2,CN1CCCC(OC(=O)C(c2ccccc2)c2ccccc2)C1 (stereo unspecified),inactive: 2.23%
3,COc1ccccc1OP(=O)(Nc1ccc(C)cn1)Oc1ccccc1OC,inactive: 0.886%
4,Cc1ccc(OP(=O)(Nc2nccs2)Oc2ccc(C)cc2)cc1,inactive: -0.0136%
5,Oc1ccccc1CNc1ccccn1,inactive: -2.47%
6,Cc1c2non([O-])c-2c(C)[n+](=O)[n+]1[O-],inactive: -5.95%
7,O=C(NC(Sc1ccncn1)C(Cl)(Cl)Cl)c1ccccc1 (stereo unspecified),inactive: 3.74%
8,CC(C)CC(=O)NC(Sc1ccc(Cl)cc1)C(Cl)(Cl)Cl (stereo unspecified),inactive: 0.567%
9,Nc1cc(N)c2nonc2c1[N+](=O)[O-],inactive: -1.35%
10,O=P(Nc1nc2ccc(Cl)cc2s1)(c1ccccc1)c1ccccc1,inactive: 2.02%
11,O=C(O)c1ccccc1[As](=O)(O)O,inactive: -0.834%
12,CC(=O)Nc1ccc([As](=O)(O)O)cc1,inactive: 4.33%
13,CCOP(=O)(Nc1ccccc1)OCC,inactive: 3.77% and inactive: 2.03%
14,Cc1cc(SC(NC(=O)c2ccc(F)cc2)C(Cl)(Cl)Cl)ncn1 (stereo unspecified),inactive: 1.56%
15,Cc1ccc(NP(=O)(Oc2ccccc2F)Oc2ccccc2F)nc1,inactive: 7.29%
16,O=[N+]([O-])c1cc([N+](=O)[O-])c(CCN2CCOCC2)c([N+](=O)[O-])c1,inactive: -0.876%
17,Nc1cccc2ccc([As](=O)(O)O)cc12,inactive: -12.8%
18,CCN(N=Nc1nonc1N)c1nonc1N,inactive: 9.87%
